# Experimental melting point values from OPERA 2.9

From the experimental data distributed with OPERA 2.9.

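The numbers are reported measurements, compiled and curated for the OPERA QSAR suite. The files give a single number for a compound and property, which may rest on several reports. Conditions of the individual experiments are not part of the data. The measured form (salt, isomer or mixture) is not always the one drawn. Unmarked limits or estimates from the upstream databases cannot be ruled out.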

Melting points are in °C. Cells with "–" have no entry in this list. The databases behind each value are named after "via".

structure (SMILES) | name | MP (°C) | via
O=Cc1ccccc1OCc1ccccn1 | 2-(pyridin-2-ylmethoxy)benzaldehyde | 74 | OCHEM
Cc1oc2c(F)c(F)c(F)c(F)c2c1C(=O)O | 4,5,6,7-tetrafluoro-2-methyl-1-benzofuran-3-carboxylic acid | 207 | OCHEM
CS(=O)(=O)Nc1cccc(CN)c1 | N-[3-(Aminomethyl)phenyl]methanesulfonamide | 127 | OCHEM
N#Cc1nc(Cl)c(Cl)c(Cl)c1Cl | – | 151 | OFMPub
CCOC(=O)c1oc2c(Cl)cccc2c1C | Ethyl 7-chloro-3-methyl-1-benzofuran-2-carboxylate | 64 | OCHEM
O=Cc1cc2c(cc1[N+](=O)[O-])OCCO2 | 7-nitro-2,3-dihydro-1,4-benzodioxine-6-carbaldehyde | 170 | OCHEM
COc1cc2c(c(OC)c1)C(=O)C(=O)N2 | 4,6-Dimethoxyindoline-2,3-dione | 290 | OCHEM
Cc1nc(-c2ccc(F)cc2)sc1C(=O)O | 2-(4-Fluorophenyl)-4-methyl-1,3-thiazole-5-carboxylic acid | 252 | OCHEM
Nc1cccc(S(=O)(=O)Nc2ccccc2C(=O)O)c1 | 2-[(3-Aminobenzene-1-sulfonyl)amino]benzoic acid | 199 | OCHEM
COc1ccc(C#N)c(F)c1F | 2,3-Difluoro-4-methoxybenzonitrile | 83.5 | OCHEM
O=Cc1c(Cl)nc2ccccn12 | 2-Chloroimidazo[1,2-a]pyridine-3-carbaldehyde | 125 | OCHEM
CCCCCCCCCCCCOC(=O)CCCCCCCCCCC | Lauryl laurate | 29.3 | eChemPortal
Cc1n[nH]c(C)c1[N+](=O)[O-] | Pyrazole, 3,5-dimethyl-4-nitro- | 122 | OCHEM
Cc1nc2cc(F)ccc2cc1C(=O)O | 7-fluoro-2-methylquinoline-3-carboxylic acid | 263 | OCHEM
Cc1ccc(C)c(-c2nc(N)sc2C)c1 | 4-(2,5-dimethylphenyl)-5-methyl-1,3-thiazol-2-amine | 93 | OCHEM
N#CCC(=O)c1ccc2c(c1)OCO2 | 3-(2H-1,3-Benzodioxol-5-yl)-3-oxopropanenitrile | 135 | OCHEM
Cn1nc(C(=O)NN)c2ccccc2c1=O | 3-Methyl-4-oxo-3,4-dihydrophthalazine-1-carbohydrazide | 135 | OCHEM
O=c1[nH]c(CCl)nc2sc3c(c12)CCC3 | – | 234 | OCHEM
Cc1ccc(C(=O)C(=O)O)cc1 | 4-Methylbenzoylformic acid | 177 | OCHEM
Nc1ccccc1OCC(F)(F)F | 2-(2,2,2-trifluoroethoxy)aniline | 50 | OCHEM
O=C(O)C1CC(=O)N(c2ccc(Br)cc2)C1 (configuration not stated) | 1-(4-bromophenyl)-5-oxopyrrolidine-3-carboxylic acid | 174 | OCHEM
O=C(O)C1CC(=O)N(c2ccc(Cl)cc2)C1 (configuration not stated) | 1-(4-Chlorophenyl)-5-oxopyrrolidine-3-carboxylic acid | 150 | OCHEM
CC(=O)CC(O)=Nc1ccccc1C(F)(F)F | 3-Oxo-N-[2-(trifluoromethyl)phenyl]butanimidic acid | 61 | OCHEM
N#CCc1ccc(NC(=O)CCl)cc1 | 2-chloro-N-[4-(cyanomethyl)phenyl]acetamide | 123 | OCHEM
CC(C)(C)N(NC(=O)c1ccccc1)C(=O)c1ccccc1Cl | N'-Benzoyl-2-chloro-N-(2-methyl-2-propanyl)benzohydrazide | 162 | OCHEM
Brc1cnc(N2CCCC2)nc1OCc1ccccc1 | 4-(Benzyloxy)-5-bromo-2-(pyrrolidin-1-yl)pyrimidine | 106.5 | OCHEM
CCOc1ccc(C(=O)NN)cc1OC | 4-ethoxy-3-methoxybenzohydrazide | 162 | OCHEM
COc1ccc(NC(=O)C(Cl)c2ccccc2)cc1 (configuration not stated) | 2-Chloro-N-(4-methoxyphenyl)-2-phenylacetamide | 154 | OCHEM
N#Cc1ccc(CSc2ccccc2C(=O)O)cc1 | 2-(4-Cyano-benzylsulfanyl)-benzoic acid | 209 | OCHEM
Cl.FC(F)(F)c1nnc2n1CCNC2 | – | 264 | eChemPortal
O=C1CSC(N2CCCCC2)=N1 | 2-piperidin-1-yl-1,3-thiazol-4(5H)-one | 78 | OCHEM
COc1ccc(OC)c(-c2csc(N)n2)c1 | 4-(2,5-dimethoxyphenyl)-1,3-thiazol-2-amine | 114 | OCHEM
CC(=O)O[C@@H]1C[C@]2(C)[C@H](CC[C@@H](O)[C@]2(C)O)[C@@](C=O)(C[C@@H](O)c2ccoc2)[C@@H]1C | Cascarillin | 205 | OCHEM
CCOC(=O)CNc1ccc(F)cc1 | ethyl 2-(4-fluoroanilino)acetate | 75 | OCHEM
O=C(O)c1ccc(-c2cccc3ccccc23)s1 | 5-(1-naphthyl)thiophene-2-carboxylic acid | 250 | OCHEM
O=C[C@H](O)[C@@H](O)[C@H](O)[C@H](S)CO | 5-Thio-D-glucose | 136 | OCHEM
COc1ccc2cc(CCl)c(Cl)nc2c1 | 2-Chloro-3-(chloromethyl)-7-methoxyquinoline | 134 | OCHEM

Repeated from above, the 4 entries with the highest MP:

structure (SMILES)	name	MP (°C)	via
COc1cc2c(c(OC)c1)C(=O)C(=O)N2	4,6-Dimethoxyindoline-2,3-dione	290	OCHEM
Cl.FC(F)(F)c1nnc2n1CCNC2	–	264	eChemPortal
Cc1nc2cc(F)ccc2cc1C(=O)O	7-fluoro-2-methylquinoline-3-carboxylic acid	263	OCHEM
Cc1nc(-c2ccc(F)cc2)sc1C(=O)O	2-(4-Fluorophenyl)-4-methyl-1,3-thiazole-5-carboxylic acid	252	OCHEM